# Yeast mating assay 1: variants of the scFv Ab-14

Target peptide (SARS-CoV-2 spike, HR2 region): PDVDLGDISGINAS

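Phage display of a naive human antibody library on the peptide gave the parent. AAYL49 was designed without a model: most single CDR substitutions and a random sample of double and triple ones. AlphaSeq pools MATa yeast showing the antibodies with MATalpha yeast showing the peptide. Pairs that bind mate more often; barcode pairs of the diploids are counted by sequencing. Read counts were normalised to the haploid input and turned into Kd by a linear fit to BCL2-family pairs of known affinity, for each replicate. There are three technical replicates.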

Parent scFv Ab-14: VH joined to VL by three GGGGS repeats. Changes lie in the heavy chain CDRs alone.
VH: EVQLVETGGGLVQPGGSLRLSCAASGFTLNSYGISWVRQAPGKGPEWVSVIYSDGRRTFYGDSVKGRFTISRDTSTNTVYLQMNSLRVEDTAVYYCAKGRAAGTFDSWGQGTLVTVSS
VL: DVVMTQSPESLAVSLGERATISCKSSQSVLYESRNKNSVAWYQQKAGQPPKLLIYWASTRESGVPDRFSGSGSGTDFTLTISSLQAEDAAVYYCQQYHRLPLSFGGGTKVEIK

Positions count from residue 1 of the parent VH; S31K puts K in place of S.
Every variant below is changed at D62 of the VH (sequential numbering).
The read-out is the apparent dissociation constant on a log10 scale (nM): the lower, the stronger.
Replicates are averaged; those with no signal do not enter the mean.
An entry "no signal" has no value in the source: the pair was not observed among the diploids in any replicate. This suggests poor binding but is not conclusive.
Three control strains display no target. For library AAYL49, 15% of the pairings with them gave a signal, with a median of 4.06 and one signal in twenty below 2.83, so weak values seen in few replicates may be background. Also given: how often the same scFv was detected with the empty control strains.

S31K+F59G+D62S: 1.16 (3 of 3 replicates; controls 3 of 9).
I34A+D62L+G99Q: no signal (0 of 3 replicates; controls 0 of 9).
D62A+T104M+F105Q: no signal (0 of 3 replicates; controls 0 of 9).
D62Q+S63Q: 1.74 (3 of 3 replicates; controls 0 of 9).
D62P+A101M+T104Y: no signal (0 of 3 replicates; controls 0 of 9).
F59D+G61R+D62H: no signal (0 of 3 replicates; controls 3 of 9).
N30P+Y32Q+D62I: no signal (0 of 3 replicates; controls 1 of 9).
T28Q+D62T+S63R: 2.86 (2 of 3 replicates; controls 1 of 9).
T28L+D62R+G99A: 4.77 (2 of 3 replicates; controls 3 of 9).
D62I+S63E: no signal (0 of 3 replicates; controls 1 of 9).
Y52H+F59C+D62L: 4.98 (2 of 3 replicates; controls 4 of 9).
D62L+V64H+A102I: no signal (0 of 3 replicates; controls 2 of 9).
L29Y+R57Q+D62R: no signal (0 of 3 replicates; controls 0 of 9).
N30T+I34M+D62L: no signal (0 of 3 replicates; controls 0 of 9).
D62R+G103Q+S107G: no signal (0 of 3 replicates; controls 0 of 9).
G55H+D62Y+V64E: no signal (0 of 3 replicates; controls 1 of 9).
T58V+D62I+S63R: no signal (0 of 3 replicates; controls 1 of 9).
F27E+S31V+D62S: 3.29 (3 of 3 replicates; controls 3 of 9).
T58S+D62V+D106K: 3.36 (1 of 3 replicates; controls 0 of 9).
I34P+S35M+D62H: 4.41 (1 of 3 replicates; controls 5 of 9).
L29V+D62H+F105G: 2.44 (3 of 3 replicates; controls 1 of 9).
G33Q+D62Q+K65I: no signal (0 of 3 replicates; controls 0 of 9).
T58R+D62S+G99W: 4.18 (2 of 3 replicates; controls 2 of 9).
Y52D+D62Q: 3.30 (1 of 3 replicates; controls 1 of 9).
D62Q+G99P+A101V: 5.01 (2 of 3 replicates; controls 6 of 9).
F27H+T28H+D62K: no signal (0 of 3 replicates; controls 1 of 9).
T28L+S31V+D62Y: 4.15 (2 of 3 replicates; controls 4 of 9).
N30H+G33D+D62K: no signal (0 of 3 replicates; controls 1 of 9).
Y52A+D54S+D62V: no signal (0 of 3 replicates; controls 1 of 9).
S31L+T58V+D62E: 2.50 (3 of 3 replicates; controls 1 of 9).
Y32V+G33W+D62W: 5.35 (3 of 3 replicates; controls 6 of 9).
R56I+D62F: 3.41 (2 of 3 replicates; controls 0 of 9).
V50T+D62V: 3.84 (1 of 3 replicates; controls 5 of 9).
D54N+T58D+D62Q: no signal (0 of 3 replicates; controls 2 of 9).
L29F+D62V+K65R: 3.19 (2 of 3 replicates; controls 1 of 9).
I34H+F59H+D62E: 4.69 (2 of 3 replicates; controls 1 of 9).
L29T+D62R+V64D: 3.66 (1 of 3 replicates; controls 4 of 9).
S53P+D62M+R100E: no signal (0 of 3 replicates; controls 0 of 9).
T28W+Y60K+D62Q: no signal (0 of 3 replicates; controls 2 of 9).
S53R+F59L+D62Q: 3.06 (1 of 3 replicates; controls 2 of 9).
Y52L+D62K+S107V: no signal (0 of 3 replicates; controls 0 of 9).
R56Q+D62I+S107E: 2.94 (1 of 3 replicates; controls 0 of 9).
D62M+S63I+V64S: 5.20 (1 of 3 replicates; controls 0 of 9).
D62P+S63Q+G103L: 4.45 (1 of 3 replicates; controls 0 of 9).
F27I+D62T+F105W: 3.59 (3 of 3 replicates; controls 1 of 9).
V50I+D62H+S107A: no signal (0 of 3 replicates; controls 1 of 9).

The measurements come from Engelhart et al. 2022 (doi:10.1038/s41597-022-01779-4) through the FLAb antibody collection.